The list shows a part of the results, in another mix than the full data. Results filed as inconclusive are left out. Active and inactive are the calls of the source. Calls come from the whole dose curve; as a rule, active = well fitted inhibition curve with a large enough effect; inconclusive = small, poorly fitted or top-dose-only effect; inactive = flat fitted curve, though single readings scatter.
Each compound was assayed against Serine/threonine-protein kinase PLK1 (Homo sapiens) (UniProt P53350) (assay: qHTS for Inhibitors of PLK1-PDB (polo-like kinase 1 - polo-box domain): Primary Screen). Settings: Plk1 PBD binding of FITC phosphopeptide, fluorescence polarization.
% is set by controls: 0 for no effect and ±100 for the full control effect; potency is the fitted concentration of half-maximal effect.
Note: nearly all actives have a fitted effect of over 65% in size.
Throughout, for max response, negative = inhibition: series mostly up to about 57 µM.

By UniProt entry, the sequences of proteins in these tests, tags left out.
UniProt P53350, whole entry, looked up: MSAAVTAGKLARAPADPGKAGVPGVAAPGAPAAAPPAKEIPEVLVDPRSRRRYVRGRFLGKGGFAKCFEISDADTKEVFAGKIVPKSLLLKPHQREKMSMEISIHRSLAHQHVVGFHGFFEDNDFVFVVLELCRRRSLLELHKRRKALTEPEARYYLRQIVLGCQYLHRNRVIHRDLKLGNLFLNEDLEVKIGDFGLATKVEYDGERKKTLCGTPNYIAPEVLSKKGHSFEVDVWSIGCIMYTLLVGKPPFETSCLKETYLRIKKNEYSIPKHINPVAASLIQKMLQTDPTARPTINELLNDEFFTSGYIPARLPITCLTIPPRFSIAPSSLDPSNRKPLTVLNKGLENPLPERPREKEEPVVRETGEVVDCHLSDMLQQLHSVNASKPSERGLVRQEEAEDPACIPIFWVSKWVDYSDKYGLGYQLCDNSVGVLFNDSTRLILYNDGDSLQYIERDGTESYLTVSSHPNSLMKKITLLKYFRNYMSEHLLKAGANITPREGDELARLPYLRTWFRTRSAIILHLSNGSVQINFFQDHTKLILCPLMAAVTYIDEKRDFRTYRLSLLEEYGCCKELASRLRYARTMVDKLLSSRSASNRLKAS

Row | Structure (SMILES) | max response, negative = inhibition | Potency
1 | O=c1c2cc([N+](=O)[O-])ccc2[nH]c2c([N+](=O)[O-])cc([N+](=O)[O-])cc12 | inactive: -29% | –
2 | CN(C)C(=O)Oc1noc2ccccc12 | inactive: -2.83% | –
3 | CC(NC(=O)COC(=O)C(O)(c1ccccc1)c1ccccc1)c1ccccc1 (stereo unspecified) | inactive: 6.83% | –
4 | Cc1ccccc1OP(=O)(Nc1ccccn1)Oc1ccccc1C | inactive: 6.02% | –
5 | CCOc1ccc(C2=NCC(CBr)S2)cc1 (stereo unspecified) | inactive: -9.15% | –
6 | O=P1(Nc2nc3ccc(Cl)cc3s2)COc2ccccc2O1 (stereo unspecified) | inactive: -6.69% | –
7 | CCc1cc(O)c([N+](=O)[O-])c(C)c1[N+](=O)[O-] | inactive: -2.78% | –
8 | CC(C)(C)C(=O)NC(Sc1ccccc1)C(Cl)(Cl)Cl (stereo unspecified) | inactive: -2.7% | –
9 | COC(=O)C1(C)COP(=O)(NCc2ccccc2)OC1 (stereo unspecified) | inactive: -4.03% | –
10 | CC(=O)c1ccc(N2CC2c2ccncc2)cc1 (stereo unspecified) | inactive: -0.0549% | –
11 | N#C/C(=C\c1ccc(N(CCBr)CCBr)cc1)C(N)=O | inactive: -17.2% | –
12 | C[C@H]1OP(=O)(Oc2ccccc2)C[C@@H]2O[C@@H]21 (stereo partly specified) | inactive: 1.73% | –
13 | C[C@@H]1C=CCP(=O)(Oc2ccccc2)O1 (stereo partly specified) | inactive: -7.29% | –
14 | Cc1ccccc1CN(C)C(=O)COC(=O)C(O)(c1ccccc1)c1ccccc1 | inactive: -10.2% | –
15 | CC(=O)Nc1ccc(Oc2c([N+](=O)[O-])cc([N+](=O)[O-])cc2[N+](=O)[O-])cc1 | – | active: 11.9 µM
16 | CC(=O)Nc1ccc([As](=O)(O)O)c(O)c1 | inactive: 5.05% | –
17 | CS(=O)(=O)c1ccc(Cl)c(NC(=O)COC(=O)C(O)(c2ccccc2)c2ccccc2)c1 | inactive: -2.7% | –
18 | O=[As](O)(O)c1cccnc1 | inactive: -4.85% | –
19 | COc1cc(C(=O)NCC2(N3CCOCC3)CCCCC2)cc(Cl)c1OC(C)C | inactive: -8.46% | –
20 | O=C(OC1CN2CCC1CC2)c1ccc(Cl)cc1 (stereo unspecified) | inactive: -4.71% | –
21 | Cc1cccc(OCC(=O)OC2CN3CCC2CC3)c1 (stereo unspecified) | inactive: -16.6% | –
22 | O=[As](O)(c1cccc(O)c1)c1cccc(O)c1 | inactive: 4.28% | –
23 | CCCOP(=S)(Nc1nc(N)cc(=O)[nH]1)OCCC | inactive: 1.67% | –
24 | Cc1ccc(NCCc2c([N+](=O)[O-])cc([N+](=O)[O-])cc2[N+](=O)[O-])cc1 | inactive: -18% | –
25 | CCOP(=O)(Nc1cccc2ccccc12)OCC | inactive: -13.5% | –
26 | COc1cc(C2NCCC3(OCCO3)C2(C)C)cc(OC)c1OC (stereo unspecified) | inactive: 2.17% | –

Row | Structure (SMILES) | max response, negative = inhibition | Potency
27 | CS(=O)(=O)c1cc([N+](=O)[O-])c2no[n+]([O-])c2c1 | – | active: 1.5 µM
28 | O=P(Nc1nccs1)(Oc1ccccc1)Oc1ccccc1 | inactive: -7.42% | –
29 | O=P(Nc1nccs1)(c1ccccc1)c1nc2ccccc2s1 (stereo unspecified) | – | active: 0.336 µM
30 | CCOP1(=S)c2c(C)nn(CCC#N)c2N=C(c2ccccc2F)N1C (stereo unspecified) | inactive: -9.62% | –
31 | O=C(O)COc1ccc([As](=O)(O)O)cc1[N+](=O)[O-] | inactive: -15.8% | –
32 | Nc1ccccc1[As](=O)(O)c1ccccc1 | inactive: 1.04% | –
33 | NC(=O)Nc1ccc([As](=O)(O)O)cc1 | inactive: -4.13% | –
34 | CN(C(=O)Cc1ccc(Cl)c(Cl)c1)[C@H]1CC[C@@]2(CCCO2)C[C@@H]1N1CCCC1 | inactive: 0.0569% | –
35 | O=[N+]([O-])c1ccc2c(c1)nnn2O | inactive: -7.86% | –
36 | CN(C)C(=O)c1cc([N+](=O)[O-])cc2c1-c1c(cc([N+](=O)[O-])cc1[N+](=O)[O-])C2=O | – | active: 29.9 µM
37 | CN(C(=O)Cc1ccccc1)[C@@H]1CC[C@]2(CCCO2)C[C@H]1N1CCCC1 | inactive: -6.71% | –
38 | N#CCCN(C(=O)COC(=O)C(O)(c1ccccc1)c1ccccc1)c1ccc(F)cc1 | inactive: -8.82% | –
39 | Cc1ccc(C(=O)OC2CN3CCC2CC3)cc1 (stereo unspecified) | inactive: 1.42% | –
40 | CC1CCC(C(C)C)C(OP(=O)(Nc2ccccn2)c2ccccc2)C1 (stereo unspecified) | inactive: -4.39% | –
41 | Cc1nn(-c2ccccc2)c2c1P(=O)(N1CCOCC1)N(C)C(c1ccccc1)=N2 (stereo unspecified) | inactive: -10.3% | –
42 | CCCC1OP(=O)(Nc2ccccc2)OCC1CC (stereo unspecified) | inactive: -9.84% | –
43 | O=C(/C=C/c1ccccc1)OC1CN2CCC1CC2 (stereo unspecified) | inactive: -11.4% | –
44 | CN(C)C1(CNC(=O)c2ccc(S(C)(=O)=O)cc2)CCCCC1 | inactive: 1.25% | –
45 | Cc1ccc(S(=O)(=O)N(CCCN)CCCc2c(C)nc(N)[nH]c2=O)cc1 | inactive: -13.1% | –
46 | Cc1ccc(OCC(=O)OC2CN3CCC2CC3)cc1 (stereo unspecified) | inactive: 0.33% | –
47 | O=[As](O)(c1cccs1)c1cccs1 | inactive: -1.23% | –
48 | NS(=O)(=O)c1cccc(NC(=O)COC(=O)C(O)(c2ccccc2)c2ccccc2)c1 | inactive: 1.99% | –
49 | O=P1(Nc2ccc(Br)cn2)COc2ccccc2OC1 | inactive: -0.38% | –
50 | Nc1cccc([As](=O)(O)c2ccccc2)c1 | inactive: -7.31% | –
51 | CCOP(=O)(Nc1ccc(C)cn1)OCC | inactive: -2.59% | –
52 | CN(CCCl)Cc1cc(Cl)c(NC2=NCCN2)c(Cl)c1 | inactive: -23.7% | –

Row | Structure (SMILES) | max response, negative = inhibition | Potency
53 | CCOP(=O)(NC(=NC(C)c1ccccc1)NC(C)c1ccccc1)OCC (stereo unspecified) | inactive: -6.5% | –
54 | CCC1=CC2Cc3nc4ccc(Cl)cc4c(N)c3C(C1)C2 (stereo unspecified) | inactive: -6.66% | –
55 | O=P1(Nc2ccccn2)COc2ccccc2OC1 | inactive: 1.15% | –
56 | Clc1n[nH]nc1-c1nn[nH][15n]1 | inactive: -6.6% | –
57 | O=P1(N(CCCl)CCCl)NCCC(C(F)(F)F)O1 (stereo unspecified) | inactive: -5.31% | –
58 | COc1ccccc1CNC(=O)COC(=O)C(O)(c1ccccc1)c1ccccc1 | inactive: -4% | –
59 | CC1(CBr)Cn2c(nc3ccccc3c2=O)S1 (stereo unspecified) | inactive: -7.09% | –
60 | CN(C(=O)Cc1ccc(Cl)c(Cl)c1)[C@@H]1CCCC[C@H]1N1CCCC1 | inactive: -22.2% | –
61 | CC(C)/C=N\N=C(\N)N[N+](=O)[O-] | inactive: -10.7% | –
62 | COC(=O)C1(C)COP(=O)(N2CCCC2)OC1 (stereo unspecified) | inactive: -13.6% | –
63 | COP1(=S)c2c(C)nn(CCC#N)c2N=C(c2ccc(F)cc2)N1C (stereo unspecified) | inactive: -13.8% | –
64 | O=C(Nc1ccncc1[N+](=O)[O-])c1ccc([N+](=O)[O-])cc1[N+](=O)[O-] | inactive: -10.9% | –
65 | O=C(COc1ccccc1)OC1CN2CCC1CC2 (stereo unspecified) | inactive: -0.165% | –
66 | O=C(O)C(=O)c1ccc(N(CCCl)CCCl)cc1 | inactive: -15.4% | –
67 | CCOC(=O)c1ccc(NC(=O)C(C)(CCl)SC)cc1 (stereo unspecified) | inactive: -16.9% | –
68 | CSc1ccc(Nc2c([N+](=O)[O-])cc([N+](=O)[O-])cc2[N+](=O)[O-])cc1 | inactive: -16.2% | –
69 | O=C(OC1CN2CCC1CC2)c1cccc([N+](=O)[O-])c1 (stereo unspecified) | inactive: -0.918% | –
70 | CC1CCNP(=O)(N(CCCl)CCCl)O1 (stereo unspecified) | inactive: -2.74% | –
71 | O=C(O)C(O)c1ccc(N(CCCl)CCCl)cc1 (stereo unspecified) | inactive: -5.22% | –
72 | CCOC(=O)Nc1ccc([As](=O)(O)O)c(O)c1 | inactive: -21.9% | –
73 | Cc1cc(SC(NC(=O)c2ccccc2)C(Cl)(Cl)Cl)nc(C(C)C)n1 (stereo unspecified) | – | active: 15 µM
74 | CCCCOc1ccc(C(=O)NCC2(N3CCCCC3)CCCCC2)cc1OC | inactive: -4.87% | –
75 | COP(=O)(OC)N1CC1c1ccccc1 (stereo unspecified) | inactive: -3.87% | –
76 | CCOC(=O)Nc1cccc([As](=O)(O)O)c1 | inactive: -13.2% | –
77 | O=[N+]([O-])c1ccc(Nc2ccc(Oc3ccc([N+](=O)[O-])cc3[N+](=O)[O-])cc2)c([N+](=O)[O-])c1 | inactive: -10.2% | –
78 | Cc1cc(SC(NC=O)C(Cl)(Cl)Cl)ncn1 (stereo unspecified) | – | active: 26.7 µM

Row | Structure (SMILES) | max response, negative = inhibition | Potency
79 | O=P(Nc1ccccn1)(c1cccc2ccccc12)c1cccc2ccccc12 | inactive: -7.07% | –
80 | O=[N+]([O-])c1ccc(-c2cc([N+](=O)[O-])c(O)c([N+](=O)[O-])c2)cc1 | – | active: 29.9 µM
81 | COc1cc(C(=O)NCC2(N3CCOCC3)CCCCC2)ccc1OCC(C)C | inactive: -6.93% | –
82 | C[As](=O)(O)c1cccc(C(=O)O)c1 | inactive: -8.13% | –
83 | O=[As](O)(c1ccc(O)cc1)c1ccccc1O | inactive: 1.54% | –
84 | Cc1ccc2nc3c(c(C)c2c1)CC(C(Cl)Cl)S3 (stereo unspecified) | inactive: -7.44% | –
85 | Cc1ccc(OP(=O)(Nc2ccc([N+](=O)[O-])cn2)Oc2ccc(C)cc2)cc1 | inactive: -12.7% | –
86 | [N-]=[N+]=NC1CCCCC1NC(=O)c1cc([N+](=O)[O-])cc([N+](=O)[O-])c1 (stereo unspecified) | inactive: -7.94% | –
87 | COC(=O)C1(C)COP(=O)(N2CCCCCC2)OC1 (stereo unspecified) | inactive: 1.25% | –
88 | CC(C)c1ccc(OP(=O)(Nc2ccccn2)Oc2ccccc2F)cc1 (stereo unspecified) | inactive: -2.99% | –
89 | ClCCSc1nnc(-c2cccnc2)o1 | inactive: -10.4% | –
90 | O=[N+]([O-])c1cc([N+](=O)[O-])c(-c2ccn[nH]2)s1 | inactive: -28.1% | –
91 | CC(C)NC(=O)NP(=O)(Oc1ccccc1)Oc1ccccc1 | inactive: -9.05% | –
92 | CCN(CC)C(=S)SC(NC=O)C(Cl)(Cl)Cl (stereo unspecified) | – | active: 13.4 µM
93 | O=C(OC1CN2CCC1CC2)c1cccc2[nH]cnc12 (stereo unspecified) | inactive: -3.14% | –
94 | Cc1cc(=O)[nH]c(N[N+](=O)[O-])n1 | inactive: -4.85% | –
95 | O=C(OC1CN2CCC1CC2)C12CC3CC(CC(C3)C1)C2 (stereo unspecified) | inactive: -0.47% | –
96 | Cc1c2c(nc3ccccc13)SC(C(Cl)Cl)C2 (stereo unspecified) | inactive: -6.68% | –
97 | COc1cc(I)ccc1[As](=O)(O)O | inactive: -19.1% | –
98 | O=P1(N(CCCl)CCCl)OCCCN1CCCl (stereo unspecified) | inactive: -7.09% | –
99 | O=P1(N(CCCl)CCCl)Nc2ccccc2N1 | inactive: -7.65% | –
100 | COc1ccc(N/C(=N/P(=O)(N2CCOCC2)N2CCOCC2)N2CCOCC2)cc1 | inactive: -1.27% | –
101 | O=[N+]([O-])c1cc(Oc2ccc([N+](=O)[O-])cc2C(F)(F)F)cc([N+](=O)[O-])c1 | inactive: 4.3% | –

Reference: PubChem BioAssay AID720504 (National Center for Advancing Translational Sciences (NCATS), 2013)
